The text below walks through data of ChEMBL document CHEMBL4477167, “Limonoids and Triterpenoids as 11β-HSD1 Inhibitors from Walsura robusta” (J Nat Prod, 2016).

Sequences of proteins named here, by UniProt entry; tags and fusion partners are left off. A change or cut given only in a name is not applied to a line headed by its entry.
UniProt P50172: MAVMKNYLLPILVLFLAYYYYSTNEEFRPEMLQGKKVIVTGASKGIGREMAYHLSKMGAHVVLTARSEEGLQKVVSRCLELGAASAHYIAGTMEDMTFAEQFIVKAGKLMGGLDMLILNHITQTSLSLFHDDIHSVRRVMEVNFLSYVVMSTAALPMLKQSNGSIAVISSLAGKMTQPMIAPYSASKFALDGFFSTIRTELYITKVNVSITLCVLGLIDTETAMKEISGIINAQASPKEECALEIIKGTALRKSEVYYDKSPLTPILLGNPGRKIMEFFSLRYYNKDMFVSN

This experiment has as its target 11-beta-hydroxysteroid dehydrogenase 1 (Mus musculus) (UniProt P50172). In words: Inhibition of mouse microsomal 11beta-HSD1 overexpressed in HEK293 cells using [3H]-cortisone as substrate assessed as formation of [3H]-cortisol at 10 uM using [3H]cortisone by scintillation proximity assay in presence of NADPH. The procedure, abridged: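 Human or mouse 11β-HSD1 inhibition measured in vitro by scintillation proximity assay (SPA). Every isolate was first screened at a single concentration of 10 μM. IC50 values were then determined for isolates giving more than 50% inhibition at that concentration. Glycyrrhetinic acid served as the positive control. Other assay conditions follow an earlier report.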
For orientation: In a scintillation proximity assay essentially only radioactivity close to the scintillant gives light.

As a reminder, the inhibition is the relative decrease from the control value, in per cent. Turning to `CC(=O)O[C@H]1C[C@@]2(C)[C@H](c3ccoc3)C[C@H]3O[C@]32[C@]2(C)C(=O)C(O)=C3C(C)(C)C(=O)C=C[C@]3(C)[C@@H]12`, the inhibition is below 50%.
